Measurements reported in patent US4451473A, “3,7-Diazabicyclo [3.3.1] nonanes having anti-arrhythmic activity” (Richter Gedeon Vegyeszeti Gyar Rt., priority 1981, dated 1984).
Where a name gives a salt, the structure may show the parent alone.

Assays:
[1] = ratio oral to intravenous; species not stated
[2] = system: disorders of cardiac rhythm provoked by aconitine in rats; assay type: in vivo; details: ED50 rat i.v. / LD50 mouse i.v.
Experimental: When examining the antiarrhythmic effects, rats were pre-treated intravenously with 1 mg/kg of aconitine to provoke disorders of cardiac rhythm [Med. Exp. (Basel) 10, 93 (1964)], thereafter the test compound was administered intravenously, and the dose required to restore the rhythm in 50% (ED50 mg/kg) was determined.
The therapeutical indices (ED50 /LD50) as well as the ratio of indices (therapeutical index of the new compound:therapeutical index of Lidocaine) are also given in the Table.

[3] = in vivo; details: mouse, iv
[4] = system: calcium antagonistic effect; experiment: Calcium antagonistic effect (pA2); details: in words

In the case of `CCN1CC2CN(C)CC(C1)C2OC(=O)c1ccc(Cl)cc1` (stereo not drawn) [3-Methyl-7-ethyl-9α-(4'-chloro-benzoyloxy)-3,7-diazabicyclo[3.3.1]nonane dihydrochloride], the “ED50 p.o./ED50 i.v.” value [1] is reported as 16.7, the “Therap. index (ED50/LD50)” value [2] is reported as 0.023 and the LD50 [3] is reported as 26 mg/kg. For the same compound, the “calcium antagonistic effect (pA2) relative to Verapramil” value [4] was “about the same as that of the Verapramil”.
